# Assay results reported in PubChem BioAssay AID1508646 (National Center for Advancing Translational Sciences (NCATS), 2021).
# This is a selection; strong and weak results do not stand in their true shares. Results filed as inconclusive are left out. The source made the active and inactive calls. Rule for the calls: active = clear falling dose curves in both reporters; inconclusive = both reporters move, but less clearly or upward; inactive = either reporter flat; the % is the FLuc reporter signal.
# Assay: Cell-based coincidence reporter assay to measure PMP22 gene transcription in S16 Pmp22-F2sN cells - Confirmatory screen
# Conditions: S16 Schwann cells Pmp22-F2sN, dual luciferase, 24 h; at 57.5 µM (top of the series)
# Source text: Assay Provider: Jim Inglese Ph.D. National Center for Advancing Translational Science, National Institutes of Health, Rockville, MD CMT is a heterogeneous group of neurological disorders that affect approximately 1 in 2,500 people. In particular, the most common form of CMT, CMT1A is genetically linked to the duplication of the PMP22 gene which leads to Schwann cell overexpression, thus manifesting itself as a typical case of dose-sensitive diseases. […] We can further discriminate the effect of all transcriptionally active molecules on PMP22 translation or stability with an assay that incorporates a short NLuc peptide (HiBiT) at the C-terminus of expressed PMP22 (S16(f8) PMP22-HiBiT) allowing alpha complementation and luminescence detection of membrane-associated PMP22 protein. […] Miniaturization of these assays to 1536-well plate format for quantitative high throughput screening (qHTS) yielded rich data sets immediately from the qHTS assay (S16(c9) Pmp22-F2sN), when compared with data from a cell viability assay (Cell TiterGlo) to identify compounds that decreased the output signals through cellular toxicity to streamline the selection process of actives for subsequent characterization using the HiBiT assay (S16(f8) PMP22-HiBiT). […]
structure (smiles),measurement,value
CC(C)(C)c1ccc(C(=O)NCC2(N3CCOCC3)CCCCC2)cc1,"activity change, negative = inhibition",inactive: -16.6%
